The values below come from patent US20100256147A1, “BIARYL ACETAMIDE DERIVATIVES AS MODULATORS OF THE KINASE CASCADE FOR THE TREATMENT OF HEARING LOSS, OSTEOPOROSIS AND CELL PROLIFERATION DISORDERS” (priority 2007, published 2010).

pIC50: −log10 of the molar value.

The subject of this assay is WRL-68. Briefly: MTT growth inhibition, WRL-68. It counts as cell-based. To be noted: Homo sapiens, WRL68, 78 h. Here is the method: Samples of the test compounds are formulated in 100% DMSO to obtain 20 mM stock solutions; stored @ 4° C. The IC50s and IC80s are determined as described below. Huh7, WRL-68, PLC/PRF/5, Hep 3B, and Hep G2 human cancer lines are routinely cultured and maintained in a basal medium containing 2% FBS @ 37° C., 5% CO2. Cells are seeded @ 4.0×10^3/190 μl and 8.0×10^3/190 μl per well of a 96-well plate. The assay medium is basal medium/1.5% FBS. […] The test article dilutions are prepared as follows: 20 mM stock solution samples are diluted serially in basal medium/1.5% FBS using 1:3 dilutions, yielding 20× concentrations; 131 μM to 0.24 nM range. 10 μL of 20× dilutions are added to the appropriate wells (n=3) containing 190 μL cancer cell line; 6561 nM to 0.012 nM range of final concentrations. Vehicle control contains cells, no sample. Medium control contains cells, no sample, 0.03% DMSO (highest DMSO concentration present in samples). The treated cells are incubated for 72 hours at 37° C., 5% CO2. On day 3, 10 μL MTT (5 mg/mL) are added to each well. Cells are incubated in the presence of MTT for 4 hours @ 37° C., 5% CO2. 90 μL 10% SDS(+HCl) is added to each well to lyse cells and solubilize formazan. […] OD570 measurements are taken, e.g., using BioTek Synergy HT multiplatform microplate reader. Growth inhibition curves IC50s and IC80s are determined using GraphPad Prism 5 statistical software.

Consider `Cc1nc(Nc2ncc(C(=O)Nc3c(C)cccc3Cl)s2)cc(N2CCN(CCO)CC2)n1` [Dasatinib], for which the negative logarithm of the IC50 (pIC50) (usually the IC50 on a negative log10 scale, so that one unit is a factor of ten) is 5.25.
